Results: ChEMBL document CHEMBL4000215, “A structure-guided optimization of pyrido[2,3-d]pyrimidin-7-ones as selective inhibitors of EGFRL858R/T790M mutant with improved pharmacokinetic properties” (Eur J Med Chem, 2017)

The chains behind the UniProt entries cited, without tags or fusion partners. Residues count along the entry.
UniProt P00533, 25-1210 T790M/L858R limits assumed: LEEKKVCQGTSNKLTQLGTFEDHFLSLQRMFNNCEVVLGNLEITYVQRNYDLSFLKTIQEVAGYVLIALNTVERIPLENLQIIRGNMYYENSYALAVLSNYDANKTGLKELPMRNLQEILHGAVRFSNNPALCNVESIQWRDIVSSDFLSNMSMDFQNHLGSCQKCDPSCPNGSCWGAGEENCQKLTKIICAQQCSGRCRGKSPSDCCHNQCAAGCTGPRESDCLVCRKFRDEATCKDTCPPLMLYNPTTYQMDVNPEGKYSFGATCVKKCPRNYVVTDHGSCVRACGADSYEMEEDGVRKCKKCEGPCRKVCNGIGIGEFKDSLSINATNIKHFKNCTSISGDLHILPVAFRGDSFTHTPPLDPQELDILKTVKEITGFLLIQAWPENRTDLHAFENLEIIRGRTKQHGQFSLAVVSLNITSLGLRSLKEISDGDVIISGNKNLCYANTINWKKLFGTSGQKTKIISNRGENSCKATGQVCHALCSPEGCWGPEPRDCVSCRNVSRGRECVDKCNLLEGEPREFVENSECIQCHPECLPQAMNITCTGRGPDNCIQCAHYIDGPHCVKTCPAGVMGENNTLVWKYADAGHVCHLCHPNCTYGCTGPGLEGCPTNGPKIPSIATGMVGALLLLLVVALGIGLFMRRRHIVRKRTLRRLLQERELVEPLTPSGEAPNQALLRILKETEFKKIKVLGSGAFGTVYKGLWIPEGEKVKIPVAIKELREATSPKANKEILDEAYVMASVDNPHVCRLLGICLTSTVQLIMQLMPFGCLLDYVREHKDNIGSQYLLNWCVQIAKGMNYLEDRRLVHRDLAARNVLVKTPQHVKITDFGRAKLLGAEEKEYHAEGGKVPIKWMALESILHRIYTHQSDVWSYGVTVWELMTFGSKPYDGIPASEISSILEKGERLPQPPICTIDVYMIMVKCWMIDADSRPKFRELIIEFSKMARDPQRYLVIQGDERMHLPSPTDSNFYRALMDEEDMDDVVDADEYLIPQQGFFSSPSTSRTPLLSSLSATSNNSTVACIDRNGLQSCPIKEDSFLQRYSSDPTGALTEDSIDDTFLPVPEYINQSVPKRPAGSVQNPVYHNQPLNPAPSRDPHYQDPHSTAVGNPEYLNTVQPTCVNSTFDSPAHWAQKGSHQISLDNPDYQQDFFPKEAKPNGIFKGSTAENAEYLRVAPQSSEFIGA

Target: Epidermal growth factor receptor (Homo sapiens, UniProt P00533, L858R/T790M)
Experiment: Inhibition of N-terminal 6His/TEV protease cleavage site-tagged human EGFR L858R/T790M double mutant (696 to 1022 residues) using poly (Glu,Tyr) 4:1 as substrate after 1 hr by ELISA

Row | IC50 [µM] | SMILES
1 | 0.436 | C=CC(=O)N1CC[C@@H](n2c(=O)cc(C)c3cnc(Nc4ccc(N5CCN(C)CC5)cc4OC)nc32)C1
2 | 0.0918 | C=CC(=O)N1CC[C@H](n2c(=O)cc(C)c3cnc(Nc4ccc(N5CCN(C)CC5)cc4OC)nc32)C1
